Drawing on ChEMBL document CHEMBL5376018 (RSC Med Chem, 2024), this text covers Activity for one compound.

This test deals with rhinovirus B14. In words: Antiviral activity against Human rhinovirus 14 infected in HeLa H1 cells at 1 MOI assessed as inhibition of cell cycle by measuring viral titre at 0.5 uM upto 6 hrs by MTT assay. It counts as functional, organism-based. (In general: Tetrazolium assays rely on reduction of a dye to a coloured formazan, in cell work by metabolically active cells.)

Activity calls are given as the source filed them. No cut-off for these calls is given here.

With `CCOC(=O)/C=C/[C@H](C[C@@H]1CCNC1=O)NC(=O)[C@@H](CC(=O)[C@@H](NC(=O)c1cc(C)on1)C(C)C)Cc1ccc(F)cc1`, the result was Active.
